Measured values published in US20130011347A1, “Personal Care Compositions With Improved Solubility of a Solid Cosmetic Active” (priority 2011, published 2013).

Key:
[1] = Solvency of solvents for (S)-Equol (visual solubility after storage)
Procedure: (§1) In the testing provided below, “soluble” (or “solubilize”), in relation to the solubility of a solid solute being tested, means that no visible crystals may be seen after a prescribed storage period at a storage condition. The storage period can vary. Suitable storage periods include about 24 hours, about 1 week, and about 30 days. Suitable storage conditions include ambient conditions or cold storage at 5° C. (approximately 1 atm). In certain embodiments, solubility may be determined after a 24 hour storage period at ambient conditions. In other embodiments, solubility may be determined after 20 days in cold storage. Other testing parameters may include storage for prolonged time periods (e.g., 30 day, 50 days, 60 days, 90 days) and at variable temperatures (e.g., 5° C., 50° C.).
The solvency of an isosorbide diester within the scope of the present invention was tested against two conventional, industry standard solvents. […] A test solution was of 6% Equol is prepared with heating to 70° C. Upon reaching 70° C., the examples may be mixed for about 10 minutes. Place mixtures in a covered vial and cool to the storage temperature. Solubility is evaluated for samples stored 24 hours at ambient conditions. Solubility is also evaluated for samples stored for 7 day at 5° C. followed by equilibration to ambient conditions.

[2] = Solvency of solvents for hexylresorcinol (visual solubility after storage)
Procedure: as §1
The solvency of an isosorbide diester within the scope of the present invention was tested against two conventional, industry standard solvents. […] A test solution of 33.5% hexylresorcinol is prepared with heating to 70° C. Upon reaching 70° C., the examples may be mixed for about 10 minutes. Place mixtures in a covered vial and cool to the storage temperature. Solubility is evaluated for samples stored 24 hours at ambient conditions. Solubility is also evaluated for samples stored for 7 day at 5° C. followed by equilibration to ambient conditions.

[3] = Solvency of solvents for tetrahydrocurcuminoids (THC) (visual solubility after storage); settings: solute tetrahydrocurcuminoids (THC), 3% test solution, approximately 1:32 solute to solvent ratio, soluble = no visible crystals

Substance	Solubility, 24 hour rest at Ambient Conditions [1]	Solubility, 7 day storage at 5° C. [1]	Solubility, 24 hour rest at Ambient Conditions [2]	Solubility, 7 day storage at 5° C. [2]	Solubility, 24 hour rest at Ambient Conditions ([1]; solute (S)-Equol, 6% test solution, approximately 1:16 solute to solvent ratio, prepared at 70° C., soluble = no visible crystals)	Solubility, 7 day storage at 5° C. ([1]; solute (S)-Equol, 6% test solution, approximately 1:16 solute to solvent ratio, then equilibration to ambient conditions, soluble = no visible crystals)	Solubility, 24 hour rest at Ambient Conditions ([2]; solute hexylresorcinol, 33.5% test solution, approximately 1:2 solute to solvent ratio, prepared at 70° C., soluble = no visible crystals)	Solubility, 7 day storage at 5° C. ([2]; solute hexylresorcinol, 33.5% test solution, approximately 1:2 solute to solvent ratio, then equilibration to ambient conditions, soluble = no visible crystals)	Solubility, 24 hour rest at Ambient Conditions ([3]; prepared at 70° C.)	Solubility, 7 day storage at 5° C. ([3]; then equilibration to ambient conditions)
C12-15 alkyl benzoate	Insoluble	Insoluble	Soluble	Soluble						
isosorbide dicaprylate					Soluble	Soluble	Soluble	Soluble	Soluble	Soluble
